Binding of CDR-mutated scFvs to a peptide of the spike HR2 region

Reference: Engelhart et al. 2022, doi:10.1038/s41597-022-01779-4. File: FLAb, binding data.

Target: peptide PDVDLGDISGINAS, taken from heptad repeat 2 (HR2) of SARS-CoV-2 spike.

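The parent was found by panning a naive human phage display library on the peptide. AAYL52 was designed without a model: most single CDR substitutions and a random sample of double and triple ones. In AlphaSeq, yeast of one mating type display the scFv and yeast of the other type display the target. Pairs that bind mate more often; barcode pairs of the diploids are counted by sequencing. Scores were corrected for input abundance and mapped to Kd with protein pairs of known affinity run in the same pool. There are three technical replicates.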

Parent: Ab-95, a human scFv built as VH, the linker GGGGSGGGGSGGGGS, VL. Only the CDRs of the light chain vary.
VH: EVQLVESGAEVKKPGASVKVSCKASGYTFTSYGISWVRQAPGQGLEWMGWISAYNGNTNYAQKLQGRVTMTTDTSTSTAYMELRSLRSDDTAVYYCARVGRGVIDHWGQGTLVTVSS
VL: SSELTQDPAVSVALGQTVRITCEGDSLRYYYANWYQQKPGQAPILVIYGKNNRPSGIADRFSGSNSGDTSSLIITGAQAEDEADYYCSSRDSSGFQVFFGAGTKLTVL

The parent's light chain CDRs are EGDSLRYYYAN, GKNNRPS, SSRDSSGFQVF; each variant's own CDRs replace them letter for letter.
The Kd shown is the geometric mean over detected replicates; a lower Kd is a better binder.
"no signal" means that the variant was in the library but no mating with the target was seen in any replicate; the authors take this as a sign of poor binding, and no number exists.

CDR-L1	CDR-L2	CDR-L3	apparent Kd	replicates with signal
EGDSWRYYYAN	CVNNRPS	SSRDSSGFQVF	11 µM	3 of 3
EGDSKRYYNAN	GKNNRPS	SSRDSSGFQVA	190 nM	3 of 3
EGDSLRSRYAN	GKNNRPS	SSGDSSGFQVF	840 nM	3 of 3
EGDSLRYIYAN	GKNMRPS	SSQDSSGFQVF	no signal	0 of 3
EGDQLRYYYAN	GQNNRPS	SSRDHSGFQVF	320 nM	3 of 3
EGDSLRYKYAN	GKNNRPS	SSRDSSMFQVF	16 nM	3 of 3
EGDSLRDYYCN	GKNNRPS	SSRDSSGFQVF	110 nM	3 of 3
EGDSLRYYYAL	GKNNRPS	SSRDSSGFWTF	10 µM	2 of 3
EGDHLRYYYAN	GKNNRAS	SSRDSSGFFVF	7.2 µM	1 of 3
EGDSLRYYYAN	GLNHRPS	SSRMSSGFQVF	no signal	0 of 3
EGDSLRYYYAN	GKNTRPS	SSGDSGGFQVF	2.1 µM	3 of 3
EGDSLRYYYAN	GKNNRPM	SSRDSSGFQDR	950 nM	3 of 3
EGVSCRYYYAN	GKGNRPS	SSRDSSGFQVF	51 nM	3 of 3
EGDSLRYYYAN	GKNNNPS	HSRDSSGFQLF	1.6 µM	1 of 3
EEDSLRYYYAN	GKNNRPS	SSFDSSGHQVF	no signal	0 of 3
EGDSLRIYYAN	GKNNRPS	SSRDSYGFQVF	no signal	0 of 3
EGDRLRYYYAN	GKNNRPS	SSRYSSGFQVP	5.3 µM	2 of 3
EGDSLRYYYAN	GKGNRPS	SHRDQSGFQVF	690 nM	3 of 3
EWDSGRYYYAN	CKNNRPS	SSRDSSGFQVF	no signal	0 of 3
EGDSLRYYYLN	GKNNRYS	SSRDSSGFPVF	5.6 µM	2 of 3
EGDSQRYYYAN	GKNNNPS	SERDSSGFQVF	33 µM	2 of 3
EGDQLRDYYAN	GKNNRPS	SSRISSGFQVF	1.8 µM	2 of 3
CGDSLRYGYAN	GHNNRPS	SSRDSSGFQVF	6.9 nM	3 of 3
EGDTLRYYYAN	GKNNRPD	SSRISSGFQVF	68 nM	3 of 3

Second part, the sequence after the result:

apparent Kd	replicates with signal	CDR-L1	CDR-L2	CDR-L3
98 µM	1 of 3	EGDSIRYYYAN	GKNNRRS	SSRDSSGFRVF
100 nM	3 of 3	EGASLRYEYAN	GKMNRPS	SSRDSSGFQVF
no signal	0 of 3	EADSLRYYYAP	GKNNRPS	SSRDSSGFIVF
67 µM	2 of 3	EGDNLRYYYAN	GKVNRPS	SSRDSSEFQVF
940 nM	3 of 3	PGDSLRYYYAG	GKNNRPS	SSRDSSYFQVF
2.4 µM	3 of 3	EGDSQRYYYAN	GKNQRPS	SSRDSSGCQVF
no signal	0 of 3	EGDSLRYYYAN	RKNNRPS	SSRDSSRFQIF
3.0 nM	3 of 3	EGDSLRTYDAN	GHNNRPS	SSRDSSGFQVF
no signal	0 of 3	EPDSLRYYYAN	GKNNRPS	SPRDSSGFQVI
1.6 µM	1 of 3	EGNSLRYNYAN	GKNNRPS	SSRDSSEFQVF
2.7 µM	3 of 3	EGDSLRYYYAN	GKNNRGS	SSRDSSGFQVI
90 nM	3 of 3	EGDSLRYYSIN	GKNNRPS	SSRDSSGAQVF
4.8 µM	3 of 3	EGDSLRYYYAN	GKKNRPS	SSRDSSGHKVF
52 µM	1 of 3	EGDSHRYYYAN	GCNNRPS	SSRDSSGFQEF
no signal	0 of 3	EGDSLRYYYDN	GKNNRPS	SSRDSVGFFVF
61 µM	1 of 3	EPPSLRYYYAN	GKNNRPS	SSHDSSGFQVF
41 µM	3 of 3	EGDSLRYYYAN	GKPRRPS	SSRDSSGFQVF
350 µM	1 of 3	NGDYLRCYYAN	GKNNRPS	SSRDSSGFQVF
420 nM	3 of 3	EGDSLRPYYAN	GKNMRPS	SWRDSSGFQVF
580 nM	3 of 3	EGDSRRYYYKC	GKNNRPS	SSRDSSGFQVF
390 nM	3 of 3	EGDSQRYYYAN	NGNNRPS	SSRDSSGFQVF
9.5 µM	2 of 3	FGDSTRYYYAN	GKNNRPS	SSRDSSGFAVF
47 µM	1 of 3	EGDSLRYFYAV	GKNNRAS	SSRDSSGFQVF
300 nM	3 of 3	EGDSLRGYYAN	GKNNRKS	SSRDSSGFQVF
690 nM	3 of 3	EGDSLRYDYAN	GKNNRPS	SSRDFSGFQVG

The last 7 entries again:

CDR-L1	CDR-L2	CDR-L3	apparent Kd	replicates with signal
EGDSLRPYYAN	GKNMRPS	SWRDSSGFQVF	420 nM	3 of 3
EGDSRRYYYKC	GKNNRPS	SSRDSSGFQVF	580 nM	3 of 3
EGDSQRYYYAN	NGNNRPS	SSRDSSGFQVF	390 nM	3 of 3
FGDSTRYYYAN	GKNNRPS	SSRDSSGFAVF	9.5 µM	2 of 3
EGDSLRYFYAV	GKNNRAS	SSRDSSGFQVF	47 µM	1 of 3
EGDSLRGYYAN	GKNNRKS	SSRDSSGFQVF	300 nM	3 of 3
EGDSLRYDYAN	GKNNRPS	SSRDFSGFQVG	690 nM	3 of 3

Three control strains display no target. For library AAYL52, 28% of the pairings with them gave a signal, with a median of 8.2 µM and one signal in twenty below 800 nM, so weak values seen in few replicates may be background.